## Binding of CDR-mutated scFvs to a peptide of the spike HR2 region

Data: MIT Lincoln Laboratory AlphaSeq set, Li et al. 2023, doi:10.1038/s41467-023-39022-2, as distributed in FLAb.

Target peptide (SARS-CoV-2 spike, HR2 region): PDVDLGDISGINAS

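Designed CDR sequences, proposed from the first random library and measured here. Their group label is 14H_GPLM_Gen (GPLM: also part of the Gaussian process libraries; Gen: genetic algorithm; a sequence that several methods proposed may carry one label only). AlphaSeq pools MATa yeast showing the antibodies with MATalpha yeast showing the peptide. Pairs that bind mate more often; barcode pairs of the diploids are counted by sequencing. A regression on co-assayed BCL2-family reference pairs converts the normalised counts of each replicate to an apparent Kd. Mating was done six times.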

Parent scFv Ab-14: VH joined to VL by the linker GGGGSGGGGSGGGGS. Changes lie in the heavy chain CDRs alone.
VH: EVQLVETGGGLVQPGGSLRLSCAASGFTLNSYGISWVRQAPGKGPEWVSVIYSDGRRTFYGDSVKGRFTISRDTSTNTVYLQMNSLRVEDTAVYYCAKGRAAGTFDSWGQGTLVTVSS
VL: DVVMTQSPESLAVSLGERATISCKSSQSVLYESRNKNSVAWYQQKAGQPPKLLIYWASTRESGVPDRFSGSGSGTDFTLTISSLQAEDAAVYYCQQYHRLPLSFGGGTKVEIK

Variants are written as CDR1, CDR2 and CDR3 of the heavy chain (limits as in the source). Parent: GFTLNSYGIS, VIYSDGRRTFYGDSVK, GRAAGTFDS. Scale: log10 of Kd in nM, estimated from mating counts; low values are strong binders. Replicates are averaged; those with no signal do not enter the mean. "nd" means that the variant was in the library but no mating with the target was seen in that replicate; the authors take this as a sign of poor binding, and no number exists.

| # | CDR-H1 | CDR-H2 | CDR-H3 | replicates, log10 nM | mean log10 Kd (nM) | empty controls |
|---|---|---|---|---|---|---|
| 1 | GFSLNSYGIS | VIYSDGRRTFYKDSVK | GQVAGTFDS | 0.65 / 0.25 / 0.66 / 0.50 / 0.29 / 0.43 | 0.46 | 0 of 18 |
| 2 | GFTLNSYGIS | VIYSDGRRTFYGDSVK | GRHAGTFDT | nd / nd / nd / nd / nd / nd | nd | 0 of 18 |
| 3 | YFSLNEYGIS | VIYSDGRRTFYGDSVK | GRTAGTFDS | 0.28 / 0.71 / -0.24 / -0.02 / 0.58 / 0.33 | 0.27 | 0 of 18 |
| 4 | GFTLNSYGIS | VIYSDGRRTFYADSVK | GQTAGTFDS | 0.14 / -0.05 / 0.27 / -0.32 / 0.04 / 0.41 | 0.08 | 0 of 18 |
| 5 | GFSLNSYGIS | VIYSDGRRTFYADAVK | GKAAGTFDS | 0.38 / 0.24 / 1.19 / 0.45 / 0.34 / 0.88 | 0.58 | 0 of 18 |
| 6 | GFSLNSYGIS | VIYADGRRTFYGDSVK | GKAAGTFDS | 0.29 / -0.22 / 0.18 / -0.07 / 0.04 / 0.29 | 0.08 | 0 of 18 |
| 7 | GFTLNSYGIS | VIYADGRRTFYGDSVK | GHAAGTFDM | -0.19 / 0.24 / -0.62 / -0.71 / -0.50 / 0.01 | -0.30 | 0 of 18 |
| 8 | GFTLNSYGIS | VIYSDGRRTFYSDSVK | GEQAGTFDS | 0.49 / 0.39 / 0.65 / 0.20 / 0.56 / 0.70 | 0.50 | 1 of 18 (2.19) |
| 9 | GFTLNSYGIS | VIYSDGRRTFYQDSVK | GQVAGTFDS | 0.95 / 0.64 / 0.86 / 1.16 / 1.43 / 1.00 | 1.01 | 1 of 18 (1.75) |
| 10 | DFSLNEYGIS | VIYSDGRRTFYGDSVK | GRTAGTFDS | 0.52 / 0.62 / 0.39 / 0.02 / 0.27 / 0.35 | 0.36 | 0 of 18 |
| 11 | GFDLNSYGIS | VIYSDGRRTFYLDSVK | GKAAGTFDS | 1.74 / 0.13 / 0.50 / 1.41 / 0.62 / 0.36 | 0.79 | 0 of 18 |
| 12 | GFDLNMYGIS | VIYSDGRRTFYGDSVK | GKAAGTFDS | 0.30 / 0.30 / 0.52 / 0.10 / 0.89 / 0.48 | 0.43 | 0 of 18 |
| 13 | GFTLNSYGIS | VIYSDGRRTFYADSVK | GRAAGTFDS | 2.17 / 0.74 / 1.06 / 0.85 / 1.00 / 0.92 | 1.12 | 1 of 18 (2.13) |
| 14 | GFSLNSYGIS | VIYSDGRRTFYADSVK | GRVAGTFDK | 0.64 / 0.54 / 0.45 / 0.09 / 0.12 / 0.35 | 0.37 | 1 of 18 (1.08) |
| 15 | GFQLNEYGIS | VIYSDGRRTFYGDSVK | GKAAGTFDL | 0.97 / 0.58 / 0.65 / 0.38 / 0.35 / 0.62 | 0.59 | 0 of 18 |
| 16 | GFSLNSYGIS | VIYSDGRRTFYADRVK | GQTAGTFDS | 0.30 / 0.82 / 0.78 / 1.44 / nd / nd | 0.83 | 0 of 18 |
| 17 | GFSLNCYGIS | VIYSDGRRTFYSDSVK | GEAAGTFDS | nd / nd / 1.50 / nd / 1.59 / 1.29 | 1.46 | 0 of 18 |
| 18 | GFNLNSYGIS | VIYSDGRRTFYVDSVK | GREAGTFDS | 0.80 / 0.85 / 0.68 / 0.43 / 0.73 / 0.81 | 0.72 | 0 of 18 |
| 19 | GFSLNSYGIS | VIYSDGRRTFYGDSVK | GSAAGTFDS | 0.69 / 0.32 / 0.36 / 0.30 / 0.65 / 0.64 | 0.49 | 0 of 18 |
| 20 | GFNLNSYGIS | VIYSDGRRTFYDDSVK | GRTAGTFDS | 1.10 / 0.85 / 0.09 / 0.72 / 0.84 / 0.27 | 0.65 | 0 of 18 |
| 21 | GFSLNSYGIS | VIYSDGRRTFYSDSVK | GWAAGTFDS | 0.72 / 0.49 / 0.07 / 1.25 / 0.32 / 0.49 | 0.55 | 0 of 18 |
| 22 | GFSLNSYGIS | VIYSDGRRTFYADSVK | GHVAGTFDS | -0.13 / 0.53 / 0.25 / -0.07 / 0.00 / 0.27 | 0.14 | 0 of 18 |
| 23 | GFTLNSYGIS | VIYSDGRRTFYVDSVK | GQLAGTFDS | nd / nd / nd / nd / -0.17 / nd | -0.17 | 0 of 18 |
| 24 | GFSLNSYGIS | VIYSDGRRTFYKDSVK | GRTAGTFDA | -0.68 / -0.45 / -0.78 / -1.78 / nd / -0.63 | -0.87 | 0 of 18 |
| 25 | GFSLNEYGIS | VIYSDGRRTFYADSVK | GRAAGTFDF | -0.28 / -0.32 / -0.03 / -0.28 / -0.15 / -0.18 | -0.21 | 0 of 18 |
| 26 | GFTLESYGIS | VIYADGRRTFYGDSVK | GRVAGTFDS | 0.43 / 0.21 / 0.16 / nd / 0.48 / -0.17 | 0.22 | 0 of 18 |
| 27 | GFSLNDYGIS | VIYSDGRRTFYHDSVK | GRTAGTFDS | 0.80 / 0.20 / -0.15 / 0.08 / -0.14 / -0.03 | 0.13 | 1 of 18 (3.11) |
| 28 | GFELNSYGIS | VIYSDGRRTFYSDSVK | GRNAGTFDS | -0.02 / 0.13 / 0.03 / 0.68 / 0.66 / 0.59 | 0.35 | 0 of 18 |
| 29 | GFELNDYGIS | VIYSDGRRTFYIDSVK | GRAAGTFDS | 1.19 / 0.20 / 0.52 / 0.60 / 0.24 / 0.71 | 0.58 | 1 of 18 (2.47) |
| 30 | GFVLNEYGIS | VIYSDGRRTFYGDSVK | GRAAGTFDS | nd / nd / nd / nd / nd / nd | nd | 0 of 18 |
| 31 | GFSLNSYGIS | VIYSDGRRTFYGDSVK | GEEAGTFDS | 0.01 / 0.09 / 0.21 / 0.11 / 0.28 / 1.23 | 0.32 | 1 of 18 (1.19) |
| 32 | GFELESYGIS | VIYSDGRRTFYADSVK | GQAAGTFDS | 0.60 / 0.14 / 0.07 / -0.09 / 0.31 / 0.50 | 0.25 | 0 of 18 |
| 33 | GFSLNSYGIS | VIYSDGRRTVYGDSVK | GRAAGTFDS | nd / 1.26 / 0.88 / 1.55 / 0.25 / 0.92 | 0.97 | 0 of 18 |
| 34 | GFSLNSYGIS | VIYSDGKRTFYGDSVK | GRTAGTFDS | 0.49 / 0.22 / 0.28 / 0.38 / 0.43 / 0.19 | 0.33 | 0 of 18 |
| 35 | GFSLNSYGIS | VIYSDGRRTFYKDSVK | GQTAGTFDS | 1.39 / 1.86 / nd / 1.66 / 1.68 / 2.53 | 1.82 | 0 of 18 |
| 36 | GFSLNDYGIS | VIYSDGRRTFYGDSVK | GRQAGTFES | nd / 2.05 / nd / nd / 3.14 / 1.16 | 2.11 | 0 of 18 |
| 37 | GFTLNSYGIS | VIYSDGQRTFYSDSVK | GQAAGTFDS | 0.81 / 0.74 / 0.29 / 0.64 / 1.76 / 1.05 | 0.88 | 0 of 18 |

A selection of 6 entries from above:

| CDR-H1 | CDR-H2 | CDR-H3 | replicates, log10 nM | mean log10 Kd (nM) | empty controls |
|---|---|---|---|---|---|
| GFDLNSYGIS | VIYSDGRRTFYLDSVK | GKAAGTFDS | 1.74 / 0.13 / 0.50 / 1.41 / 0.62 / 0.36 | 0.79 | 0 of 18 |
| DFSLNEYGIS | VIYSDGRRTFYGDSVK | GRTAGTFDS | 0.52 / 0.62 / 0.39 / 0.02 / 0.27 / 0.35 | 0.36 | 0 of 18 |
| GFDLNMYGIS | VIYSDGRRTFYGDSVK | GKAAGTFDS | 0.30 / 0.30 / 0.52 / 0.10 / 0.89 / 0.48 | 0.43 | 0 of 18 |
| GFELNDYGIS | VIYSDGRRTFYIDSVK | GRAAGTFDS | 1.19 / 0.20 / 0.52 / 0.60 / 0.24 / 0.71 | 0.58 | 1 of 18 (2.47) |
| GFSLNSYGIS | VIYSDGRRTFYGDSVK | GEEAGTFDS | 0.01 / 0.09 / 0.21 / 0.11 / 0.28 / 1.23 | 0.32 | 1 of 18 (1.19) |
| GFSLNSYGIS | VIYSDGRRTFYSDSVK | GWAAGTFDS | 0.72 / 0.49 / 0.07 / 1.25 / 0.32 / 0.49 | 0.55 | 0 of 18 |

The parent sequence was in this pool as ten entries: three were never detected, three once, and four in most replicates, with averages from 0.34 to 2.37. The range of this assay differs from that of the first round, and the authors advise against merging the two. As a blank, each scFv also met three strains without target: over all heavy chain designs, 1% of these pairings were detected, typically at 2.08 and seldom below 0.84. For each scFv, signals with the empty controls are counted beside the result, with their mean in brackets. The authors' rule: three or more of the six replicates give a measured affinity, fewer mean a poor binder.